Key:
[1] = test system: Kv1.x channel; details: cited from earlier work
[2] = test system: SKCa channel; details: cited from earlier work
[3] = molecular target: T1, KCNQ1 channel (Homo sapiens, UniProt P15382+P51787); experiment: cell-based; details: HEK293, read-out: Inhibition of KCNQ1 channel current
[4] = molecular target: T1, KCNQ1 channel

## CC(C)[C@@H]1NC(=O)[C@@H]2CSSC[C@@H]3NC(=O)[C@H](CC(=O)O)NC(=O)[C@H](CCC(=O)O)NC(=O)[C@@H](NC(=O)[C@@H](NC(=O)[C@H](C)N)[C@@H](C)O)CSSC[C@H](NC(=O)[C@H](CCCCN)NC(=O)[C@H](C)NC(=O)[C@H](CCCNC(=N)N)NC(=O)[C@H](C)NC(=O)[C@H](CC(N)=O)NC(=O)[C@H](CCC(N)=O)NC(=O)[C@H]([C@@H](C)O)NC(=O)[C@H](C)NC(=O)[C@H](CSSC[C@@H](C(=O)N[C@@H](CCC(=O)O)C(=O)N4CCC[C@H]4C(=O)N[C@@H](CCCCN)C(=O)O)NC1=O)NC(=O)[C@H](Cc1c[nH]cn1)NC(=O)[C@H](CCC(=O)O)NC(=O)[C@@H]1CCCN1C3=O)C(=O)N[C@@H](CC(=O)O)C(=O)N[C@@H](CC(N)=O)C(=O)N[C@@H](CC(=O)O)C(=O)N[C@@H](CCCCN)C(=O)N2 [BmP01, reference compound]
[1]
  Block of Kv1.x channel (in words): low activity (micromolar range)
[2]
  Inhibition of SKCa channel (in words): weakly inhibits
[3]
  inhibition at 10 µM: 4.82%
[4]
  Effect on KCNQ1 channel (in words): only weak inhibitors

Source: article PMC3325286, “Structural and Functional Diversity of Acidic Scorpion Potassium Channel Toxins” (PLoS ONE, 2012)
